Experimental data from article PMC5831360 (Nature chemical biology, 2017).

By UniProt entry, the sequences of proteins in these tests, tags left out.
UniProt Q5JUX0, whole entry: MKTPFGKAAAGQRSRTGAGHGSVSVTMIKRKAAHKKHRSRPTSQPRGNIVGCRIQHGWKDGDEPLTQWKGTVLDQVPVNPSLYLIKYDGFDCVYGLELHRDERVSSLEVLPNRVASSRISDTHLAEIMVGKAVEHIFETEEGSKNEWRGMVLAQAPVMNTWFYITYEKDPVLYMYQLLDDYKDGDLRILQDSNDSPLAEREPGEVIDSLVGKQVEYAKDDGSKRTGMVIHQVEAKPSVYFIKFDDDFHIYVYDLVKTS

Molecular target: SPIN3 (Homo sapiens, UniProt Q5JUX0)
Conditions: chemiprecipitation

Compound: O=C(c1ccc(C(=O)N2CCC(CCN3CCCC3)CC2)c(Nc2ccc(OCN3CCCC3)cc2)c1)N1CCC(CCN2CCCC2)CC1 [EML631]
- interaction of tagged compound with SPIN3: no interaction
